Measurements as given in publication PMC12102759 (Protein Science : A Publication of the Protein Society, 2025).

Amino acid sequences for entries named in this document (tags omitted). Residues count along the entry.
UniProt Q9Y490, 309-401: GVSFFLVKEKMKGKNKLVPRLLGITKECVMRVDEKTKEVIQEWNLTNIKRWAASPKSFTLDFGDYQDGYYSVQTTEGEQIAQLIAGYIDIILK

Assays:
[1] = system: AP2M1 MU; type: binding, human
[2] = biological target: TLN1 PTB (Homo sapiens, UniProt Q9Y490); type: binding

Sequence	PSSM value of the substitution (DMS by phage display) [1]	DMS-derived PSSM value of the single-substitution variant [2]
QVVSDIDYVPLKSATA A14A	0.005667	
QVVSDIDYVPLKSATA A14D (QVVSDIDYVPLKSDTA)	0.02736	
QVVSDIDYVPLKSATA A14E (QVVSDIDYVPLKSETA)	0	
QVVSDIDYVPLKSATA A14F (QVVSDIDYVPLKSFTA)	0.0004615	
TDERSWVYSPLHYSAQ T1V (VDERSWVYSPLHYSAQ)		0.02903
TDERSWVYSPLHYSAQ T1W (WDERSWVYSPLHYSAQ)		0.03019
TDERSWVYSPLHYSAQ T1Y (YDERSWVYSPLHYSAQ)		0.01376
TDERSWVYSPLHYSAQ V7A (TDERSWAYSPLHYSAQ)		0.3675
TDERSWVYSPLHYSAQ V7D (TDERSWDYSPLHYSAQ)		0.004676
TDERSWVYSPLHYSAQ V7E (TDERSWEYSPLHYSAQ)		0.02073
TDERSWVYSPLHYSAQ V7F (TDERSWFYSPLHYSAQ)		0.006179
TDERSWVYSPLHYSAQ V7G (TDERSWGYSPLHYSAQ)		0.006634
TDERSWVYSPLHYSAQ V7H (TDERSWHYSPLHYSAQ)		0.005577
TDERSWVYSPLHYSAQ V7I (TDERSWIYSPLHYSAQ)		0.005489
TDERSWVYSPLHYSAQ V7K (TDERSWKYSPLHYSAQ)		0.03056
TDERSWVYSPLHYSAQ V7L (TDERSWLYSPLHYSAQ)		0.04475
TDERSWVYSPLHYSAQ V7M (TDERSWMYSPLHYSAQ)		0.01699
TDERSWVYSPLHYSAQ V7N (TDERSWNYSPLHYSAQ)		0.1374
TDERSWVYSPLHYSAQ V7P (TDERSWPYSPLHYSAQ)		0.0002617
TDERSWVYSPLHYSAQ V7Q (TDERSWQYSPLHYSAQ)		0.01298
TDERSWVYSPLHYSAQ V7R (TDERSWRYSPLHYSAQ)		0.04163

Sequence	PSSM value of the substitution (DMS by phage display) [1]	DMS-derived PSSM value of the single-substitution variant [2]
TDERSWVYSPLHYSAQ V7S (TDERSWSYSPLHYSAQ)		0.01209
TDERSWVYSPLHYSAQ V7T (TDERSWTYSPLHYSAQ)		0.1107
TDERSWVYSPLHYSAQ V7V		0.07907
TDERSWVYSPLHYSAQ V7W (TDERSWWYSPLHYSAQ)		0.02806
TDERSWVYSPLHYSAQ V7Y (TDERSWYYSPLHYSAQ)		0.06871
TDERSWVYSPLHYSAQ W6A (TDERSAVYSPLHYSAQ)		0.002875
TDERSWVYSPLHYSAQ W6D (TDERSDVYSPLHYSAQ)		0
TDERSWVYSPLHYSAQ W6E (TDERSEVYSPLHYSAQ)		0.004443
TDERSWVYSPLHYSAQ W6F (TDERSFVYSPLHYSAQ)		0.03325
TDERSWVYSPLHYSAQ W6G (TDERSGVYSPLHYSAQ)		0.003987
TDERSWVYSPLHYSAQ W6H (TDERSHVYSPLHYSAQ)		0
TDERSWVYSPLHYSAQ W6I (TDERSIVYSPLHYSAQ)		0.01452
TDERSWVYSPLHYSAQ W6K (TDERSKVYSPLHYSAQ)		0.006269
TDERSWVYSPLHYSAQ W6L (TDERSLVYSPLHYSAQ)		0.002846
TDERSWVYSPLHYSAQ W6M (TDERSMVYSPLHYSAQ)		0
TDERSWVYSPLHYSAQ W6N (TDERSNVYSPLHYSAQ)		0.01276
TDERSWVYSPLHYSAQ W6P (TDERSPVYSPLHYSAQ)		0.01862
TDERSWVYSPLHYSAQ W6Q (TDERSQVYSPLHYSAQ)		0
TDERSWVYSPLHYSAQ W6R (TDERSRVYSPLHYSAQ)		0.01647
TDERSWVYSPLHYSAQ W6S (TDERSSVYSPLHYSAQ)		0
TDERSWVYSPLHYSAQ W6T (TDERSTVYSPLHYSAQ)		0.004443

Sequence	PSSM value of the substitution (DMS by phage display) [1]	DMS-derived PSSM value of the single-substitution variant [2]
TDERSWVYSPLHYSAQ W6V (TDERSVVYSPLHYSAQ)		0.01735
TDERSWVYSPLHYSAQ W6W		0.8573
TDERSWVYSPLHYSAQ W6Y (TDERSYVYSPLHYSAQ)		0.004839
TDERSWVYSPLHYSAQ Y8A (TDERSWVASPLHYSAQ)		0.01629
TDERSWVYSPLHYSAQ Y8D (TDERSWVDSPLHYSAQ)		0.02077
TDERSWVYSPLHYSAQ Y8E (TDERSWVESPLHYSAQ)		0.01953
TDERSWVYSPLHYSAQ Y8F (TDERSWVFSPLHYSAQ)		0.05295
TDERSWVYSPLHYSAQ Y8G (TDERSWVGSPLHYSAQ)		0.004462
TDERSWVYSPLHYSAQ Y8H (TDERSWVHSPLHYSAQ)		0.116
TDERSWVYSPLHYSAQ Y8I (TDERSWVISPLHYSAQ)		0.01435
TDERSWVYSPLHYSAQ Y8K (TDERSWVKSPLHYSAQ)		0.01029
TDERSWVYSPLHYSAQ Y8L (TDERSWVLSPLHYSAQ)		0.1253
TDERSWVYSPLHYSAQ Y8M (TDERSWVMSPLHYSAQ)		0.03539
TDERSWVYSPLHYSAQ Y8N (TDERSWVNSPLHYSAQ)		0.07629
TDERSWVYSPLHYSAQ Y8P (TDERSWVPSPLHYSAQ)		0.006785
TDERSWVYSPLHYSAQ Y8Q (TDERSWVQSPLHYSAQ)		0.01205
TDERSWVYSPLHYSAQ Y8R (TDERSWVRSPLHYSAQ)		0.1517
TDERSWVYSPLHYSAQ Y8S (TDERSWVSSPLHYSAQ)		0.01037
TDERSWVYSPLHYSAQ Y8T (TDERSWVTSPLHYSAQ)		0.1176
TDERSWVYSPLHYSAQ Y8V (TDERSWVVSPLHYSAQ)		0.09843
TDERSWVYSPLHYSAQ Y8W (TDERSWVWSPLHYSAQ)		0.03901

Sequence	PSSM value of the substitution (DMS by phage display) [1]	DMS-derived PSSM value of the single-substitution variant [2]
TDERSWVYSPLHYSAQ Y8Y		0.07238
TDERSWVYSPLHYSAQ Y13A (TDERSWVYSPLHASAQ)		0.0133
TDERSWVYSPLHYSAQ Y13D (TDERSWVYSPLHDSAQ)		0.241
TDERSWVYSPLHYSAQ Y13E (TDERSWVYSPLHESAQ)		0.009966
TDERSWVYSPLHYSAQ Y13F (TDERSWVYSPLHFSAQ)		0.05082
TDERSWVYSPLHYSAQ Y13G (TDERSWVYSPLHGSAQ)		0.009966
TDERSWVYSPLHYSAQ Y13H (TDERSWVYSPLHHSAQ)		0.008357
TDERSWVYSPLHYSAQ Y13I (TDERSWVYSPLHISAQ)		0.1432
TDERSWVYSPLHYSAQ Y13K (TDERSWVYSPLHKSAQ)		0.01075
TDERSWVYSPLHYSAQ Y13L (TDERSWVYSPLHLSAQ)		0.03195
TDERSWVYSPLHYSAQ Y13M (TDERSWVYSPLHMSAQ)		0.022
TDERSWVYSPLHYSAQ Y13N (TDERSWVYSPLHNSAQ)		0.07672
TDERSWVYSPLHYSAQ Y13P (TDERSWVYSPLHPSAQ)		0.02173
TDERSWVYSPLHYSAQ Y13Q (TDERSWVYSPLHQSAQ)		0.03935
TDERSWVYSPLHYSAQ Y13R (TDERSWVYSPLHRSAQ)		0.007546
TDERSWVYSPLHYSAQ Y13S (TDERSWVYSPLHSSAQ)		0.138
TDERSWVYSPLHYSAQ Y13T (TDERSWVYSPLHTSAQ)		0.01355
TDERSWVYSPLHYSAQ Y13V (TDERSWVYSPLHVSAQ)		0.02098
TDERSWVYSPLHYSAQ Y13W (TDERSWVYSPLHWSAQ)		0.01059
TDERSWVYSPLHYSAQ Y13Y		0.1302
